Drawing on patent publication US20260041781A1, “NOVEL GLUCOCORTICOID RECEPTOR AGONISTS AND IMMUNOCONJUGATES THEREOF” (priority 2022, published 2026), this text covers EC50 for two compounds.

Sequences of proteins named here, by UniProt entry; tags and fusion partners are left off. Residues count along the entry.
UniProt P04150, 524-758 limits assumed: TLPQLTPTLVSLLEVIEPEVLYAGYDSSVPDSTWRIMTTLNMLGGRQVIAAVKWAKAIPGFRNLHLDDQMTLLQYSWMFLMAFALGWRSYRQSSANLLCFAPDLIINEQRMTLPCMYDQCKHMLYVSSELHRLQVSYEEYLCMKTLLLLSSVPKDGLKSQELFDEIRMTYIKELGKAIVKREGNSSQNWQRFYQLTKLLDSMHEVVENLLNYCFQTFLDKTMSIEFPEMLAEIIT

This assay deals with GR LBD (ligand binding domain) (Homo sapiens, UniProt P04150). Kind of assay: GR Reporter Assay (pBind assay, pG5luc luciferase reporter, agonist mode). Conditions: HEK293 cells transiently transfected with pG5luc and GR LBD. The class given is cell-based.

As to `CN(C)C(=O)[C@@]12O[C@H](c3cccc(N)c3)O[C@@H]1C[C@H]1[C@@H]3C[C@H](F)C4=CC(=O)C=C[C@]4(C)[C@@]3(F)[C@@H](O)C[C@@]12C`, the half-maximal effective concentration (EC50) is < 5 nM.

`CN(C)C(=O)[C@@]12O[C@@H](c3cccc(N)c3)O[C@@H]1C[C@H]1[C@@H]3C[C@H](F)C4=CC(=O)C=C[C@]4(C)[C@@]3(F)[C@@H](O)C[C@@]12C`: the EC50 is < 5 nM.
